For orientation: inhibition means the relative decrease from the control value, in per cent.

The chains behind the UniProt entries cited, without tags or fusion partners.
UniProt Q9Y337, whole entry, looked up: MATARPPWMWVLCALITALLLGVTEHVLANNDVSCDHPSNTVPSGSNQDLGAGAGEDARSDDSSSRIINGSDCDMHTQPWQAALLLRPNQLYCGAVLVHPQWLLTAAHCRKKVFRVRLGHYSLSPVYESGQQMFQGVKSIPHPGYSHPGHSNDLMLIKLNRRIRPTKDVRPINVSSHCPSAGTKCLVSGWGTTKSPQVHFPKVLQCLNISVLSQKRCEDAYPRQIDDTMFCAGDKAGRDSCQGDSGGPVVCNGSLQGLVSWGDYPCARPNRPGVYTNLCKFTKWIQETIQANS

This is a selection; strong and weak results do not stand in their true shares. Calls of active or inactive are those of the source.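 Rule for the calls: active = inhibition of 40% or more; inactive = the rest.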

In the test the target is Kallikrein-5 (Homo sapiens) (UniProt Q9Y337). Briefly: inhibition of kallikrein 5 (hK5) activity – biochemical, 1536-well, primary screen (AID 873).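 Note: 0% = enzyme controls without compound and 100% = no-enzyme blanks.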 To be noted: recombinant hK5, fluorogenic AMC substrate cleavage; at 5 µM; stronger effect = higher value.
Consider `Cc1ccc(OP(=O)(Nc2ccccn2)Oc2ccc(C)cc2)cc1`, for which the inhibition was inactive: -1.72%. To `CC(=O)NC(SC(=S)N(CC(C)C)CC(C)C)C(Cl)(Cl)Cl` (stereo not drawn) belongs inactive: 23.2%. To `COC(=O)c1cc2c(s1)N=C(c1ccccc1)N(C)P2(=O)N1CCOCC1` (stereo not drawn) belongs inactive: -6.79%; to `CCC(=O)N1C2C3N(C(=O)CC)C1C1N(C(=O)CC)C(C(N1C(=O)CC)N3C(=O)CC)N2C(=O)CC`, inactive: -25.1%. The value for `CN(C)C(=O)Oc1noc2ccccc12` was inactive: 4.65%; that for `O=c1c2cc([N+](=O)[O-])ccc2[nH]c2c([N+](=O)[O-])cc([N+](=O)[O-])cc12` was inactive: 4.46%. Take `Cc1ccccc1OP(=O)(Nc1ccccn1)Oc1ccccc1C`: the inhibition was inactive: 4.08%. To `CCNC(=S)/N=C(\N)N[N+](=O)[O-]` belongs inactive: -24.8%; to `O=C(NC1CCS(=O)(=O)C1)NP(=S)(Oc1ccccc1)Oc1ccccc1` (stereo not drawn), inactive: -1.49%; to `CCOC(=O)NC(Sc1ccccc1)C(Cl)(Cl)Cl` (stereo not drawn), inactive: -11.2%. To `Cc1ccc(NP(=O)(Oc2cccc(C)c2)Oc2cccc(C)c2)nc1` belongs inactive: 2.76%; to `c1ccc(-c2nn[nH]n2)c(-c2nn[nH]n2)c1`, inactive: -2.15%; to `O=[N+]([O-])c1ncn(CCn2cnc([N+](=O)[O-])n2)n1`, inactive: -2.32%.

`CC(=O)NC(SC(=S)N(C)C)C(Cl)(Cl)Cl` (stereo not drawn): the inhibition is inactive: -11.2%. For the compound `O=[As](O)(c1ccccc1)c1ccc(O)cc1`, the inhibition was inactive: 9.11%. The value for `Nc1ccc([As](=O)(O)c2ccc([N+](=O)[O-])cc2)cc1` was inactive: -7.39%; that for `C(Cc1nn[nH]n1)Cc1nn[nH]n1` was inactive: -15.9%; that for `O=C(OC1CN2CCC1CC2)c1cccc(Cl)c1` (stereo not drawn) was inactive: -10.4%. To `O=P(Nc1ccccn1)(c1ccc(Br)cc1)c1ccc(Br)cc1` belongs inactive: -0.41%.

Turning to `C[C@H]1OP(=O)(Oc2ccccc2)[C@H](O)[C@H](O)[C@H]1N=[N+]=[N-]` (stereo partly drawn), the inhibition was inactive: 1.48%.

For `O=P(Nc1nc2ccccc2s1)(c1ccccc1)c1ccccc1`, the inhibition is inactive: -13.7%. To `CC(C)C(=O)NC(Sc1ccccc1)C(Cl)(Cl)Cl` (stereo not drawn) belongs inactive: -0.58%. To `O=P(Nc1nccs1)(c1ccccc1)c1ccccc1` belongs inactive: -0.74%.

The values are drawn from PubChem BioAssay AID873 (PCMD, 2007).
